PubChem BioAssay AID720704 (The Scripps Research Institute Molecular Screening Center, 2013)
Only a part is listed here, and it is no random draw. Some salts and complexes are drawn in separate pieces, as the source files them; their charges need not balance. Activity calls are given as the source filed them. Rule as the data show it: active = inhibition above about 11%; inactive = the rest.

By UniProt entry, the sequences of proteins in these tests, tags left out.
UniProt Q01970, whole entry: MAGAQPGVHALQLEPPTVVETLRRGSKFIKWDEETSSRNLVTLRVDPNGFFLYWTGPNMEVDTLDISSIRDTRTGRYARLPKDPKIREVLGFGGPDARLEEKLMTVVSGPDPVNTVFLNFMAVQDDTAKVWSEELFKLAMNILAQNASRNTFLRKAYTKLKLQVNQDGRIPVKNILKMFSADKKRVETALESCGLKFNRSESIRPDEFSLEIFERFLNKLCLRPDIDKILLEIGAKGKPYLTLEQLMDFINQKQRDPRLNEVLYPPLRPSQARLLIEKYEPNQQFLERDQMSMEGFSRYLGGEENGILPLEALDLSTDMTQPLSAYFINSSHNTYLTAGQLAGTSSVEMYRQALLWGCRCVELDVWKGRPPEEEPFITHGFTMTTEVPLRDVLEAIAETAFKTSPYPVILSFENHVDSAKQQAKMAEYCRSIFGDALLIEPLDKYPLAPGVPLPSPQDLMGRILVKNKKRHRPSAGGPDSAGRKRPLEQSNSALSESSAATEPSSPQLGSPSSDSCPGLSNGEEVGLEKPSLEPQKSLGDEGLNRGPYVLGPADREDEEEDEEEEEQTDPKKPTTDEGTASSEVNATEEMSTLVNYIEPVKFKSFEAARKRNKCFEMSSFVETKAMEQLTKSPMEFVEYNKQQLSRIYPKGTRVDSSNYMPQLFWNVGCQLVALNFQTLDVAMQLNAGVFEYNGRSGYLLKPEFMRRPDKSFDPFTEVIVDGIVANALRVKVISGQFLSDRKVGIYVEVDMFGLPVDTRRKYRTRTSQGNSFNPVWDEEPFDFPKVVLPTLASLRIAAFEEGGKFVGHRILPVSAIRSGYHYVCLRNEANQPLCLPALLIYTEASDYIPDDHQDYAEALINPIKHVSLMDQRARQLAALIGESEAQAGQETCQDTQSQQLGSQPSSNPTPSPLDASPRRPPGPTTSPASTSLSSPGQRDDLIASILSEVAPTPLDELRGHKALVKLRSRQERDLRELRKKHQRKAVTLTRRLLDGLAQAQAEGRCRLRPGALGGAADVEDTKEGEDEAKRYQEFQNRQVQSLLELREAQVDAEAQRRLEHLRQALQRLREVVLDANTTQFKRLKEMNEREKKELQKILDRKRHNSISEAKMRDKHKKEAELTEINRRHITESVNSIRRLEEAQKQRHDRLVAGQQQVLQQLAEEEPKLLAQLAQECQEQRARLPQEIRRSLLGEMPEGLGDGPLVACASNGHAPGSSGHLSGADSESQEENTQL

Each compound was assayed against 1-phosphatidylinositol 4,5-bisphosphate phosphodiesterase beta-3 (Homo sapiens) (UniProt Q01970) (assay: phospholipase C beta3 enzyme inhibition – biochemical, fluorescence, primary screen (AID 720704;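 also: 0% = median of compound wells on plate and 100% = full blocker control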)). Conditions: Purified PLC-beta3, fluorogenic substrate, at 12.2 µM, active compounds read high.
For `CCc1ccc(OP(C)(=O)Nc2cccnc2)cc1` (stereo not given), the inhibition was inactive: -3.87%. With `CP(=O)(Oc1ccccc1)N1CCOC1=O` (stereo not given) the inhibition was inactive: 2.8%. `O=C(OCCCN1CCCC1)C(O)(c1ccccc1)C1CCCCC1` (stereo not given) was tested, and the inhibition was inactive: -7.51%. `COc1ccccc1OP(C)(=O)Nc1c(C)n(C)n(-c2ccccc2)c1=O` (stereo not given) was tested, and the inhibition was inactive: -4.07%. In the case of `COc1ccc(OP(C)(=O)Nc2ccc(Br)cc2)cc1` (stereo not given), the inhibition is reported as inactive: 4.18%. `CCN(CC)CC(O)COC(=O)C(O)(c1ccccc1)C1CCCCC1` (stereo not given) was tested, and the inhibition was inactive: -0.29%. In the case of `CN(C)C(=O)c1c([N+](=O)[O-])cc([N+](=O)[O-])cc1[N+](=O)[O-]`, the inhibition is reported as inactive: -4.28%. With `CP(=O)(Nc1ccc(Cl)cc1)Oc1ccc(F)cc1` (stereo not given) the inhibition was inactive: 1.65%. With `COc1ccccc1OP(C)(=O)Nc1ccccc1Br` (stereo not given) the inhibition was inactive: -2.02%. With `CC(C)(C)c1ccc(OP(C)(=O)O)cc1` the inhibition was inactive: 3.63%. For `CP(=O)(OC12CC3CC(CC(C3)C1)C2)OC12CC3CC(CC(C3)C1)C2`, the inhibition was inactive: -1.07%. With `CCOC(=O)c1ccc(NP(C)(=O)Oc2ccc(Cl)cc2)cc1` (stereo not given) the inhibition was inactive: 3.91%. For `Nc1ccc2c(ccc3cccnc32)n1.O=[N+]([O-])c1cc([N+](=O)[O-])c(O)c([N+](=O)[O-])c1`, the inhibition was inactive: -267%. For `COc1ccc(NP(C)(=O)Oc2ccccc2OC)cc1` (stereo not given), the inhibition was inactive: 2.63%. With `CN(C)CCOC(=O)C(O)(c1ccccc1)C1CCCCC1` (stereo not given) the inhibition was inactive: 6.47%. For `COc1ccc(OP(C)(=O)Nc2cccc(Br)c2)cc1` (stereo not given), the inhibition was inactive: 1.41%. With `Cc1c(C(c2ccc3c(c2)OCO3)c2c(C)n(C)n(-c3ccccc3)c2=O)c(=O)n(-c2ccccc2)n1C.O=[N+]([O-])c1cc([N+](=O)[O-])c(O)c([N+](=O)[O-])c1` the inhibition was inactive: -5.69%. For `O=[N+]([O-])c1cc([N+](=O)[O-])c(NCC2CCS(=O)(=O)C2)c([N+](=O)[O-])c1` (stereo not given), the inhibition was inactive: 1.64%. For `Cc1cc(-c2cccc3ccccc23)c(C)cn1.O=[N+]([O-])c1cc([N+](=O)[O-])c(O)c([N+](=O)[O-])c1`, the inhibition was inactive: -3.38%. In the case of `O=[N+]([O-])c1ccc(OP2(=O)COCCO2)cc1` (stereo not given), the inhibition is reported as inactive: 0.76%. `CCOP(=O)(CC)OCC` was tested, and the inhibition was inactive: -4.26%. For `CCOP(C)(=S)SCC(=O)NC(C)(CC)C(=O)O` (stereo not given), the inhibition was inactive: 3.94%. `CP(=O)(Nc1ccc(SC(F)(F)F)cc1)Oc1ccc(F)cc1` (stereo not given) was tested, and the inhibition was inactive: -1.12%. For `O=[N+]([O-])c1cc([N+](=O)[O-])c(C(F)(F)F)c([N+](=O)[O-])c1O`, the inhibition was inactive: 3.93%. `Cc1ccccc1NP(C)(=O)Nc1ccccc1C` was tested, and the inhibition was inactive: 1.01%. With `CP(=O)(Nc1ccc2c(c1)OCCO2)Oc1ccccc1` (stereo not given) the inhibition was inactive: 1.96%. With `CC(C)c1ccc(OP(C)(=O)Nc2ccc(SC(F)(F)F)cc2)cc1` (stereo not given) the inhibition was inactive: 3.13%. `CP(=O)(Nc1ccccc1F)Oc1ccccc1` (stereo not given) was tested, and the inhibition was inactive: 1.12%. For `O=[N+]([O-])c1cc([N+](=O)[O-])c(Nc2ccc(Cl)cc2)c([N+](=O)[O-])c1`, the inhibition was inactive: 1%. For `COc1ccc2c(c1O)-c1c(O)c(OC)cc3c1[C@H](C2)[N+](C)(C)CC3.O=[N+]([O-])c1cc([N+](=O)[O-])c([O-])c([N+](=O)[O-])c1[O-]`, the inhibition was inactive: -224%. For `O=C(OCCN1CCN(CCOCc2ccccc2)CC1)C(O)(c1ccccc1)c1ccccc1`, the inhibition was inactive: 2.04%. `O=C(OC1CN2CCC1CC2)c1ccc([N+](=O)[O-])cc1` (stereo not given) was tested, and the inhibition was inactive: 1.38%. `COc1ccc(OP(C)(=O)Nc2ccc(SC(F)(F)F)cc2)cc1` (stereo not given) was tested, and the inhibition was inactive: 3.44%. With `CCOC(=O)c1ccc(NP(C)(=O)Oc2ccc(F)cc2)cc1` (stereo not given) the inhibition was inactive: -1.49%. With `CCN(CC)CCCNc1ccccc1[N+](=O)[O-].O=[N+]([O-])c1cc([N+](=O)[O-])c(O)c([N+](=O)[O-])c1` the inhibition was inactive: 3.59%. With `CCCCCOc1ccc(NP(C)(=O)Oc2ccc(Cl)cc2Cl)cc1` (stereo not given) the inhibition was inactive: -6.86%. `O=[N+]([O-])c1cc([N+](=O)[O-])c(OC2CCCCC2O)c([N+](=O)[O-])c1` (stereo not given) was tested, and the inhibition was inactive: -1.87%. For `CP(=O)(Nc1ccccc1)Oc1ccc(F)cc1` (stereo not given), the inhibition was inactive: 1.87%. In the case of `CCN(CC)CCCOC(=O)C(O)(c1ccccc1)C1CCCCC1` (stereo not given), the inhibition is reported as inactive: 2.37%. With `Cc1c([N+](=O)[O-])cc([N+](=O)[O-])c(Br)c1[N+](=O)[O-]` the inhibition was inactive: 5.83%.
